Consider one compound from patent publication US11603377B2, “MTORC1 modulators and uses thereof” (Aeovian Pharmaceuticals, Inc., priority 2020, dated 2023).

Sequences of proteins named here, by UniProt entry; tags and fusion partners are left off.
UniProt Q13451, whole entry: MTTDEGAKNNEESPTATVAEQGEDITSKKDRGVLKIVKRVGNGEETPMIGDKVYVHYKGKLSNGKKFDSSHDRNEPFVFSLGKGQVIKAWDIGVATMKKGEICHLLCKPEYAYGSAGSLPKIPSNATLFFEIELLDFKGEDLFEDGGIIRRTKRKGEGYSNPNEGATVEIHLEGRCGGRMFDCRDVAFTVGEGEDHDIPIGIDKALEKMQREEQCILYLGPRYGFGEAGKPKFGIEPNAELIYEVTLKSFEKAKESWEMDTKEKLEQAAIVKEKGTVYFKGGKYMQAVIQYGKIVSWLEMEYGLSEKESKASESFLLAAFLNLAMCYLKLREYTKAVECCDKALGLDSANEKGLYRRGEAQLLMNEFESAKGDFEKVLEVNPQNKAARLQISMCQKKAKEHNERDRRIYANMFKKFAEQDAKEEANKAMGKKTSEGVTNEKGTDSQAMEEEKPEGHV

For one test, the target named is FKBP12 (Homo sapiens (Human), UniProt P62942). Kind of test: SPR assay to determine binding affinity to FKBP12 (direct binding). Particulars: read-out: FKBP12 Kd, immobilized biotinylated avi-FKBP12. In general terms: In SPR one partner is held on a chip, and binding of the other changes the refractive index at the surface.
The target of a further test is FKBP51 (Homo sapiens (Human), UniProt Q13451). Kind of test: SPR assay to determine binding affinity to FKBP51 (direct binding). To be noted: read-out: FKBP51 Kd, immobilized biotinylated avi-FKBP51.
For test [1], the target named is FKBP12 / FRB ternary complex (Homo sapiens (Human), UniProt P42345+P62942). Kind of test: SPR assay to characterize ternary complex formation with FKBP12 (FRB binding to rapalog-saturated FKBP12). Particulars: read-out: FKBP12 ternary complex Kd, FRB dilutions with 100 nM rapalog on immobilized FKBP12.
Test [2] addresses FKBP51 / FRB ternary complex (Homo sapiens (Human), UniProt P42345+Q13451). Nature of the test: SPR assay to characterize ternary complex formation with FKBP51 (FRB binding to rapalog-saturated FKBP51). To be noted: read-out: FKBP51 ternary complex Kd, FRB dilutions with 100 nM rapalog on immobilized FKBP51.
For the next test, the target named is mTORC1 (Homo sapiens (Human), UniProt P42345+P62942). Nature of the test: mTORC1 inhibition, AlphaLISA of Phospho-p70 S6 kinase (p70S6K pT389) in PC-3 cells. The format is cell-based. To be noted: read-out: mTORC1 IC50, inhibition of p70S6K pT389 levels. A general note: Bead proximity is the source of the signal in Alpha formats.
The target in a further test is mTORC2 (Homo sapiens (Human), UniProt P42345+P62942). Nature of the test: mTORC2 inhibition, AlphaLISA of Phospho-AKT (pAKT pS473) in PC3 cells. It counts as cell-based.

In the case of `CO[C@@H]1C[C@H](C[C@@H](C)[C@@H]2CC(=O)[C@H](C)/C=C(\C)[C@@H](O)[C@@H](OC)C(=O)[C@H](C)C[C@H](C)/C=C/C=C/C=C(\C)[C@@H](O[C@H]3CCOC3)C[C@@H]3CC[C@@H](C)[C@@](O)(O3)C(=O)C(=O)N3CCCC[C@H]3C(=O)O2)CC[C@H]1O`, the Kd (as a rule, a measure of binding affinity in units of concentration) at FKBP12 is < 0.0003 µM; on FKBP51, > 0.1 µM; in test [1] it was > 0.8 µM; in test [2], > 0.8 µM. Besides, the IC50 (in general, the concentration at which inhibition is half-maximal) on mTORC1 is > 0.0008 µM. In addition, the “mTORC2 % inhibition at 1 uM” value on mTORC2 is “A (A ≤20% inhibition at 1 micro Molar (uM))”.
